Assay results from paper PMC5120310, “In Silico Exploration for Novel Type-I Inhibitors of Tie-2/TEK: The Performance of Different Selection Strategy in Selecting Virtual Screening Candidates” (Scientific Reports, 2016).

By UniProt entry, the sequences of proteins in these tests, tags left out. Residues count along the entry.
UniProt Q02763, 23-1124 limits assumed: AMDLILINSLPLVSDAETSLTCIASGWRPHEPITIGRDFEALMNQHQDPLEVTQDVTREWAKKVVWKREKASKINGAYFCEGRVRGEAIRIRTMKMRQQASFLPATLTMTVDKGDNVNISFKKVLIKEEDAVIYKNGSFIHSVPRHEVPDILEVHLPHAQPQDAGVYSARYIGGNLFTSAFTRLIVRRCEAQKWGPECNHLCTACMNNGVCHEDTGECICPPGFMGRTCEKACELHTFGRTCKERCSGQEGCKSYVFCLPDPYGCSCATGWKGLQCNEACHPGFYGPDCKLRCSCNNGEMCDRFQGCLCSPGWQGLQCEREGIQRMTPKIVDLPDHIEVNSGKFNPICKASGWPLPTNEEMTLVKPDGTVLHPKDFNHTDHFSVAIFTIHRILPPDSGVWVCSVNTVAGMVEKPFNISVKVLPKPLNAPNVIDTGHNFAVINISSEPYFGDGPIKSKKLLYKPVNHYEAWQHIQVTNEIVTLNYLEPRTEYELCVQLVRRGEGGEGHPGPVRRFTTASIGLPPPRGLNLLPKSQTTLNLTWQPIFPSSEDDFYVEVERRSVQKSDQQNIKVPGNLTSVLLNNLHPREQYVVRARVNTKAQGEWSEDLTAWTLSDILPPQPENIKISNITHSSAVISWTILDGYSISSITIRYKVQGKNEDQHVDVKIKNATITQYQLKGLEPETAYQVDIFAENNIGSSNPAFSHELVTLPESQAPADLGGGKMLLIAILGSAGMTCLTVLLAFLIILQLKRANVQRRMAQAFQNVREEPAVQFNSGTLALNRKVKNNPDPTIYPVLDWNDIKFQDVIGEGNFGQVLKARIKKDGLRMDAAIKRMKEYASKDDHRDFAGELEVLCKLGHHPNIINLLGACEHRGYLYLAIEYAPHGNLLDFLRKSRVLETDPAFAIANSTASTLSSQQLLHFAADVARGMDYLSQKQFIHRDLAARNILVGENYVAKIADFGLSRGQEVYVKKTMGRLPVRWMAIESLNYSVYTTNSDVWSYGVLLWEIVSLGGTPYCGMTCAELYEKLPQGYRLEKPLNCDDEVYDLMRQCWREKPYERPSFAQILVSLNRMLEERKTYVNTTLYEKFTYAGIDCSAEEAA

Biological target: recombinant human Tie-2 protein (Homo sapiens, UniProt Q02763)
Assay: Z′-Lyte FRET enzymatic activity assay of Tie-2 kinase
Format: biochemical

Inhibition (%) @10 μg/ml (10 μg/mL preliminary screening, Table S1): 43.36±1.3%
Tie-2 inhibitory activity in words (active / inactive) (VS candidates of Strategy 1, preliminary screening at 10 μg/mL): active
IC50 (read-out: IC50 (half-maximal inhibitory concentration), Tie-2 kinase, Z′-Lyte assay, 100 μM ATP, n ≥ 2 per concentration): 34 µM
SMILES: Cc1ccc(Cl)cc1-c1ccc(C=NNc2nc3ccccc3s2)o1
